Results: PubChem BioAssay AID463115 (University of Pittsburgh Molecular Library Screening Center, 2010)
Only a part is listed here, and it is no random draw. Calls of active or inactive are those of the source. No stated cut-off is given here; in the data, active means inhibition above about 25%; inactive means the rest.

Sequences of proteins named here, by UniProt entry; tags and fusion partners are left off. Residues count along the entry.
UniProt P09958, 108-714 limits assumed: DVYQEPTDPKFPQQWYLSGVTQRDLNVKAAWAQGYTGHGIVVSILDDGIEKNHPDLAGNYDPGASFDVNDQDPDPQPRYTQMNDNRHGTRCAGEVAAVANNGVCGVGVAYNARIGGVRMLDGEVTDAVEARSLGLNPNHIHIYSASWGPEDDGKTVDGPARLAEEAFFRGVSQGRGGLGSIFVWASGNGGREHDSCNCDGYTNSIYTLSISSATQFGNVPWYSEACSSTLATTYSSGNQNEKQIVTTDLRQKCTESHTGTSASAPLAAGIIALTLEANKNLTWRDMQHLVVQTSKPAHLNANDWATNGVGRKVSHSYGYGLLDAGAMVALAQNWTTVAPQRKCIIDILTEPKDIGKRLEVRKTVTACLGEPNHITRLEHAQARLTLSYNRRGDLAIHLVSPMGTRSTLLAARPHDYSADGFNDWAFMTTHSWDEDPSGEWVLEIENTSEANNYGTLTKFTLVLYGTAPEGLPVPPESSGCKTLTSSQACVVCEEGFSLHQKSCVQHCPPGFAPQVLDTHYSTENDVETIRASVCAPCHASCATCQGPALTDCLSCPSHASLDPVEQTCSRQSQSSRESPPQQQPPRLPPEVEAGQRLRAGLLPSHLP

These compounds were tested against Furin (Homo sapiens) (UniProt P09958) (assay: human furin inhibitors, primary screen, biochemical, fluorescence intensity (AID 463115)). Conditions: purified furin, fluorogenic substrate cleavage, active compounds read high; at 30 µM unless noted.

| Structure (SMILES) | inhibition |
| --- | --- |
| CP(=O)(Nc1ccccn1)Oc1ccc(Cl)cc1 (configuration not stated) | inactive: -19.5% [at 20 µM] |
| COc1ccc(OP(C)(=O)Nc2ccccc2Br)cc1 (configuration not stated) | inactive: -14.8% |
